ChEMBL document CHEMBL5058646 (2022)

Sequences of proteins named here, by UniProt entry; tags and fusion partners are left off. A change or cut given only in a name is not applied to a line headed by its entry.
UniProt O95365: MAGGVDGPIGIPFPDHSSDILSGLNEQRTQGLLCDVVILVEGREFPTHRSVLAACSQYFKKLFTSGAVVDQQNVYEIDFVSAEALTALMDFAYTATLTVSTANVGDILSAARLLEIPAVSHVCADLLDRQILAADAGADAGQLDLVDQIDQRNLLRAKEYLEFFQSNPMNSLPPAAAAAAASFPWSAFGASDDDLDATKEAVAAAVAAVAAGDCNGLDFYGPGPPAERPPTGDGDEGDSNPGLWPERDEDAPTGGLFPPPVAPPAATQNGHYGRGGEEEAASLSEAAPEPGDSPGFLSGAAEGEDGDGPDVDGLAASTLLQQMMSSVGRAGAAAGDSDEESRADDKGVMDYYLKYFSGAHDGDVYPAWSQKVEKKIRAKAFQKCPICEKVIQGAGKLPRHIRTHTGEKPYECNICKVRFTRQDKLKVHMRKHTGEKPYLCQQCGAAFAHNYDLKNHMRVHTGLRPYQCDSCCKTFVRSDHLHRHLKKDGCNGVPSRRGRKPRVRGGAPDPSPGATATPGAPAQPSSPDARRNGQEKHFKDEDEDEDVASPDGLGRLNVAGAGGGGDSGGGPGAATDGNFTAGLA

Assays:
Conditions in all cases: SUD4
[1] = target: T1, Zinc finger and BTB domain-containing protein 14 (Homo sapiens) (UniProt O43829)
T1 sequence (whole entry): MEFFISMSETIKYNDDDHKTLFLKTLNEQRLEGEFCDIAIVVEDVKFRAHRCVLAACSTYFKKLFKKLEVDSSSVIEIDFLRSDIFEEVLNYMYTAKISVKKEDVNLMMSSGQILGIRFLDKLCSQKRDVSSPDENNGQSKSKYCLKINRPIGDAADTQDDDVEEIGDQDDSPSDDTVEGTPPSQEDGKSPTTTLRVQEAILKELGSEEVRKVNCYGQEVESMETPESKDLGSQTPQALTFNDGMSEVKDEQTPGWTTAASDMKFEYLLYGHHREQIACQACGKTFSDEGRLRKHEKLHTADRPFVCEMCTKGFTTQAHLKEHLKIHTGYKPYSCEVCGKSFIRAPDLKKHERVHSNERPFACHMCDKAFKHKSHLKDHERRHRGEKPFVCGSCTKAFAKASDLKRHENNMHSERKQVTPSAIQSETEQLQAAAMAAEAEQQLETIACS

[2] = target: Zinc finger and BTB domain-containing protein 7A (Homo sapiens) (UniProt O95365)
[3] = target: T2, Zinc finger and BTB domain-containing protein 11 (Homo sapiens) (UniProt O95625)
T2 sequence (whole entry): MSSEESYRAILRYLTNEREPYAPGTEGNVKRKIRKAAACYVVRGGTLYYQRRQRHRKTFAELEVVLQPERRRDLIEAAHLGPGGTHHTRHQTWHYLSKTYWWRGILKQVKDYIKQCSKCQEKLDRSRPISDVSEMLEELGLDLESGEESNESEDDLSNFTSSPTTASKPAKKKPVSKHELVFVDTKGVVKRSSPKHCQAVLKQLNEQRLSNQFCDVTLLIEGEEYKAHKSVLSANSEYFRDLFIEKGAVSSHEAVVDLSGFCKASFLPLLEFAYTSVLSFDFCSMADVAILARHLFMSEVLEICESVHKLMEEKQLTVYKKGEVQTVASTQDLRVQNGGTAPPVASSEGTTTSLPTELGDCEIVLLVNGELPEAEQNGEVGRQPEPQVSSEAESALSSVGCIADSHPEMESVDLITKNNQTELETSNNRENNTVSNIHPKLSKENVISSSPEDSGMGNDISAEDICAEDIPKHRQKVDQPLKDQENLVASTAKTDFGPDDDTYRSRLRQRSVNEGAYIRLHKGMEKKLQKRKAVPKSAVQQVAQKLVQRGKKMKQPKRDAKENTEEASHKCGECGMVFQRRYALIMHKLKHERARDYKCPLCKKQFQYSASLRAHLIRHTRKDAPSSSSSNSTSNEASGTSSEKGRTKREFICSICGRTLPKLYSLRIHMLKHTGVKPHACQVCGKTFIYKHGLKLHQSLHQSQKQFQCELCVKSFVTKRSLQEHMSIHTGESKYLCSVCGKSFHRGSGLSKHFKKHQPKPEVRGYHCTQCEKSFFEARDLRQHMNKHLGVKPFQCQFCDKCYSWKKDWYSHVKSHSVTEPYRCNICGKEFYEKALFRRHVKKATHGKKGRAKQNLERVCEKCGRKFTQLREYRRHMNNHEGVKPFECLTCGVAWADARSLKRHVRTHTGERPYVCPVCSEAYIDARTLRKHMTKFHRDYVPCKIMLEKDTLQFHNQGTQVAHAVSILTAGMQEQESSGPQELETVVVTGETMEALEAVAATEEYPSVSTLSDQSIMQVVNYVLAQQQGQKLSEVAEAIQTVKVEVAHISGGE

[4] = target: T3, Zinc finger protein 131 (Homo sapiens) (UniProt P52739)
T3 sequence (whole entry): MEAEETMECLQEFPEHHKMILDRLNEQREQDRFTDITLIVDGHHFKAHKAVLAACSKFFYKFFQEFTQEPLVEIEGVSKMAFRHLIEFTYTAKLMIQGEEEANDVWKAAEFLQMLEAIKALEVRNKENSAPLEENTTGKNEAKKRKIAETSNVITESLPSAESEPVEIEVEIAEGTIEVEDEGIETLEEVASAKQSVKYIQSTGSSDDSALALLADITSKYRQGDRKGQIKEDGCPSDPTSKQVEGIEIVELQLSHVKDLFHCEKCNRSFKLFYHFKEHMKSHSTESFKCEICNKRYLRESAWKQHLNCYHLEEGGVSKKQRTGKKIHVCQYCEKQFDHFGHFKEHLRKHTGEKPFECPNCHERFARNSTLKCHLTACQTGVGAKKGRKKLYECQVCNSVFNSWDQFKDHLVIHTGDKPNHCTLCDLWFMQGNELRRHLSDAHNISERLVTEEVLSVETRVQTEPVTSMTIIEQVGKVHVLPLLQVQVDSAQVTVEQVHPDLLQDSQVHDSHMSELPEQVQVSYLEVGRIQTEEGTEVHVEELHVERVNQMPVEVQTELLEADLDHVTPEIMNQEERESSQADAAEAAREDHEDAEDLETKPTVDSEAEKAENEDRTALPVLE

[5] = target: T4, Zinc finger and BTB domain-containing protein 44 (Homo sapiens) (UniProt Q8NCP5)
T4 sequence (whole entry): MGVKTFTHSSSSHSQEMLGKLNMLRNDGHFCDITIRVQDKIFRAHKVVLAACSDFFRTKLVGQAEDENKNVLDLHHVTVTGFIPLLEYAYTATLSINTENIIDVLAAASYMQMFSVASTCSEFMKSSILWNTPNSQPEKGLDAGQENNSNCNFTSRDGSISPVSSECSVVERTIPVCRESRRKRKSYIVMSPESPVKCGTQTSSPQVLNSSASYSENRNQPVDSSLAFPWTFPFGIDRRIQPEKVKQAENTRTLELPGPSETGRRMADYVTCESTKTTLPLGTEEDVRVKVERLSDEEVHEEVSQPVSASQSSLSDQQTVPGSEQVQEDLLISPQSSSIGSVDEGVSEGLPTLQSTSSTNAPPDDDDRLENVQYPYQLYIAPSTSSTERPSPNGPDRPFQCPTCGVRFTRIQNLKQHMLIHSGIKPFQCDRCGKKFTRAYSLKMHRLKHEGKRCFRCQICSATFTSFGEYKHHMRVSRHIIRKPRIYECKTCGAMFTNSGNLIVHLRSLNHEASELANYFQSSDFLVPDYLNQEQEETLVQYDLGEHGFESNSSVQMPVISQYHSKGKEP

Normalized abundances for DMSO [1]: 354 | Normalized abundances for compound [1]: 362 | Normalized abundances for DMSO [2]: 915 | Normalized abundances for compound [2]: 937 | Normalized abundances for DMSO [3]: 2740 | Normalized abundances for compound [3]: 2800 | Normalized abundances for DMSO [4]: 1850 | Normalized abundances for compound [4]: 1790 | Normalized abundances for DMSO [5]: 566 | Normalized abundances for compound [5]: 563
Structure (SMILES): C[C@@H]1CN(c2ncc(Cl)c(Nc3ccc4c(c3)n(CCC(C)(C)O)c(=O)n4C)n2)C[C@H](C)C1(F)F
